Results taken from patent publication US20220372008A1, “LUCIFERIN DERIVATIVES AND A METHOD FOR SYNTHESIS THEREOF” (VIDYASIRIMEDHI INSTITUTE OF SCIENCE AND TECHNOLOGY, priority 2019, published 2022).

By UniProt entry, the sequences of proteins in these tests, tags left out.
UniProt P08659, whole entry: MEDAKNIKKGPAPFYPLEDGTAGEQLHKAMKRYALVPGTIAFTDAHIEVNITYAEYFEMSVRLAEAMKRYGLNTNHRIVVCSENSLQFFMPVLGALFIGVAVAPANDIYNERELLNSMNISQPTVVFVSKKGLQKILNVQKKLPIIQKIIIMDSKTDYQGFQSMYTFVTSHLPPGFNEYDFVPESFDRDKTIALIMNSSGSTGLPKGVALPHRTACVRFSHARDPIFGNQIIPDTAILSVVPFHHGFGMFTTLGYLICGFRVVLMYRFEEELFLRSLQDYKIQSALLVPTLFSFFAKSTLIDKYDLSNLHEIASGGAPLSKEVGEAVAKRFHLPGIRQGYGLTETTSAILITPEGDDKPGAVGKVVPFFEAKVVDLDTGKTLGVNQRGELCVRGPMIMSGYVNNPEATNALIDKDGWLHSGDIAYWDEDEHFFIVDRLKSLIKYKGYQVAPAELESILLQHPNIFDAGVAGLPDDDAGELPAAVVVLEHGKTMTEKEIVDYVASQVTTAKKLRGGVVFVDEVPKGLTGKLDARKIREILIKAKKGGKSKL

Target: firefly luciferase (Photinus pyralis, UniProt P08659)

O=C(O)[C@H]1CSC(c2nc3ccc(O)cc3s2)=N1 [standard luciferin, luciferin]
emitting wavelength as substrate for the firefly luciferase (spectrofluorometer under bioluminescent mode): 560 nm | maximum emission wavelength (substrate for wild-type firefly luciferase, FIG. 5): 560 nm
